ChEMBL document CHEMBL4251566 (Eur J Med Chem, 2018)
Active and inactive are the calls of the source. The rule behind the calls is not given here.

Biological target: T1, Tyrosine-protein kinase JAK3 (Homo sapiens) (UniProt P52333)
T1 sequence (whole entry): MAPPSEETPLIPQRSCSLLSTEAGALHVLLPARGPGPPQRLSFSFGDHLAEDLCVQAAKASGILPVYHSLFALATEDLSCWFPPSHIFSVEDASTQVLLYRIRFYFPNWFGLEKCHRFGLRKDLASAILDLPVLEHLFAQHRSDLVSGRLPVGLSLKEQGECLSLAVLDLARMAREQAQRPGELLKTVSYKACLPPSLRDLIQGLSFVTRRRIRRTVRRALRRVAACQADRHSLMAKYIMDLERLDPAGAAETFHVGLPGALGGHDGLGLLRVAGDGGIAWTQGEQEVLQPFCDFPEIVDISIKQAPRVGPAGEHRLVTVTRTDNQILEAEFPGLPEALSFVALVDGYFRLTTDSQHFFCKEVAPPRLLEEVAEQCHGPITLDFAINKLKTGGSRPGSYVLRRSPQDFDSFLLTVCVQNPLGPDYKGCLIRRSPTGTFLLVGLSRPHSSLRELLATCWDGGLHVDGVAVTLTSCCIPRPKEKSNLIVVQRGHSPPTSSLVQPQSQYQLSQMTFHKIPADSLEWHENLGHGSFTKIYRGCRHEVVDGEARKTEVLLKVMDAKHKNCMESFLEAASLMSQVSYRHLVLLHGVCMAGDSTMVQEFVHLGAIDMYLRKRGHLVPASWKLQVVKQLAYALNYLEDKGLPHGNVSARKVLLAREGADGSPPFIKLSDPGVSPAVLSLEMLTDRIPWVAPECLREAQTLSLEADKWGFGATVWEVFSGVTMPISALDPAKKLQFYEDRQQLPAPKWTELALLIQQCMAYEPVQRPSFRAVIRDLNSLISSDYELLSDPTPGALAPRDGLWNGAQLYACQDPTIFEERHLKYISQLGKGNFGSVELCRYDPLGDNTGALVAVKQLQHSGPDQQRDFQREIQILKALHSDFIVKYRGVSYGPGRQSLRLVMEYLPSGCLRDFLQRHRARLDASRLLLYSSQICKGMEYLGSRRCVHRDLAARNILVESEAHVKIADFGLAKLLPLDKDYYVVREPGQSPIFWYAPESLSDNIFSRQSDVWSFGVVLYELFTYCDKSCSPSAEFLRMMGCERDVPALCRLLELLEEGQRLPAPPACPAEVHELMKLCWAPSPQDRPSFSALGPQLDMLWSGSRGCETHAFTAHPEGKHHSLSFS
Settings: 10 uM

## C=CC(=O)N1CCC[C@@H](n2nc(-c3ccc(Oc4ccccc4)cc3)c3c(N)ncnc32)C1 [IBRUTINIB]
  inhibition: Active
